Assay results as given in ChEMBL document CHEMBL4699668, “Discovery and Structure-Activity Relationships of Novel Template, Truncated 1'-Homologated Adenosine Derivatives as Pure Dual PPARγ/δ Modulators” (J Med Chem, 2020).

Target: T1, Peroxisome proliferator-activated receptor delta (Homo sapiens) (UniProt Q03181)
T1 sequence (whole entry): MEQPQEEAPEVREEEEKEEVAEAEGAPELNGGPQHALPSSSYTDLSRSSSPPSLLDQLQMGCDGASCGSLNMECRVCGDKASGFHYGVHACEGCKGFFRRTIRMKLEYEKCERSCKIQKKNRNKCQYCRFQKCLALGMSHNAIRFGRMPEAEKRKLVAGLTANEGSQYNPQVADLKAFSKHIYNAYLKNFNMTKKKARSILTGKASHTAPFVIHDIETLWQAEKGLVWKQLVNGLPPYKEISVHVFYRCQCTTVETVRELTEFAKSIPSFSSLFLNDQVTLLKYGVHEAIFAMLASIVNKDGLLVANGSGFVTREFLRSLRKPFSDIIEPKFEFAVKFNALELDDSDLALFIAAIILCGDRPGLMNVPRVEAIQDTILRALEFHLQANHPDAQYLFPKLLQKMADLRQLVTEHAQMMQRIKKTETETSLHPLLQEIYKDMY
Settings: filed as antagonist, dose 10.0 µM

O[C@@H]1[C@H](O)CS[C@H]1Cn1cnc2c(NCc3cccc(I)c3)nc(Cl)nc21 was tested, and the Activity was “Active”.

Active and inactive are the calls of the source. The rule behind the calls is not given here.
